Assay results published in patent EP0689839A2, “Use of inhibitors of adenosine triphosphatase for the manufacture of a medicament for the treatment of disorders anociated with beta-amyloid peptide” (ELI LILLY AND COMPANY, priority 1994, dated 1996).

Test system: 293 751 SWE and CHO 751 SWE
Experiment: Cytotoxic effects / cellular viability by MTT in the cellular assay
Type: cell-based
Procedure: Two cell lines (human kidney cell line 293 and Chinese hamster ovary cell line CHO) were stably transfected with the gene for APP751 containing the double mutation Lys₆₅₁-Met₆₅₂ to Asn₆₅₁-Leu₆₅₂ (APP-751 numbering) commonly called the Swedish mutation using the method described in Citron, et al., Nature (London), 360:672-674 (1992). The transfected cell lines were designated as 293 751 SWE and CHO 751 SWE, and were plated in Corning 96 well plates at 2.5 x 10⁴ or 1 x 10⁴ cells per well respectively in Dulbecco's […] essential media (DMEM) plus 10% fetal bovine serum. Following overnight incubation at 37°C in an incubator equilibrated with 10% carbon dioxide (CO₂) and humidified air, the media were removed and replaced with 200 µl per well of media containing a macrolide. After a two hour pretreatment period, the media were again removed and replaced with fresh media containing the test compound and the cells were incubated for an additional two hours.
Cytotoxic effects of the compounds were measured by a modification of the method of Hansen, et al., Journal of Immununological Methods, 119:203-210 (1989). To the cells remaining in the tissue culture plate, was added 25 µl of a 3-(4,5-dimethylthiazol-2-yl)2,5-diphenyltetrazolium bromide (MTT) stock solution (5 mg/ml) to a final concentration of 1 mg/ml. Cells were incubated at 37°C for one hour, and cellular activity was stopped by the addition of an equal volume of MTT lysis buffer (20% w/v sodium dodecylsulfate in 50% DMF, pH 4.7). Complete extraction was achieved by overnight shaking at room temperature. The difference in the OD562nm and the OD650nm was measured in a UVmax microplate reader as an indicator of the cellular viability.

For elaiophyline, the “Percent Viability” value (0.6 µM) was 96%, the “Percent Viability” value (1.2 µM) was 95% and the “Percent Viability” value (2.4 µM) was 69%. For the same substance, the “Percent Viability” value (4.9 µM) was 68% and the “Percent Viability” value (9.8 µM) was 65% and 63%.

Values joined by “and” are separate entries in the source; they are usually repeats but may differ in a detail not shown here. Equal values may be shown once.
